Assay results from US20250017979A1, “METHODS AND COMPOSITIONS FOR IMPROVING IN VIVO SURVIVAL OF MIDBRAIN DOPAMINE NEURONS” (MEMORIAL SLOAN-KETTERING CANCER CENTER, priority 2022, published 2025).

Test system: NURR1::H2B-GFP sorted neurons
Test: TNFα / adalimumab treatment of day 25 NURR1::H2B-GFP sorted dopamine neurons in vitro (immunofluorescence, western blot, qRT-PCR)
Type: cell-based, human
Method: hESC differentiation toward DA neurons. Midbrain dopaminergic neuron differentiation was performed using H9 hESCs, which include Nurr1::GFP. hESCs were grown on VTN-N (Thermo Fisher Scientific)-coated 6-well plates in E8-essential medium. Cells were maintained at 37° C., 5% CO2. hESCs were differentiated with an optimized protocol from a previously reported study (Kim et al., 2021, Cell Stem Cell February 4; 28 (2): 343-355.c5; Riessland et al., 2019, Cell Stem Cell. October 3; 25 (4): 514-530.c8). At day 25 of differentiation from hPSCs iCas9/NURR1::GFP hPSC lines containing sgRNA-pool libraries and sgRNA for dTomato and p53 hPSCs, GFP and dTomato expressed dopamine neurons were sorted using flow cytometry associated cell sorting (FACS). The sorted hPSCs were either injected into mice or cultured for subsequent experiments until use. […]
RNA extraction and Real time quantitative reverse transcription-PCR (gRT-PCR). […] Delta-delta-cycle threshold (AACT) was determined relative to GAPDH levels and normalized to control samples. […]
Protein isolation and western-blot analysis. […] Supernatant was collected upon 15 minutes centrifugation >15,000 rpm at 4° C. and protein concentration was measured using Precision Red Advanced Protein Assay (Cytoskeleton). […]

Substance: TNFα: proinflammatory cytokine applied to cultured dopamine neurons as stimulus
- p53 and p53 downstream genes p21 and PUMA mRNA (TNFα exposure, qRT-PCR): upregulated
- p53 expression in dopamine neurons (co-positive with NFκB-p65) (TNFα treatment, 24 hours, immunofluorescence): increased
